## Measured melting point values of organic chemicals

Values as listed in the OPERA 2.9 repository of K. Mansouri.

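These are experimental values that the OPERA curators gathered from public databases to train and test their QSAR models. One number stands for a compound and property, with no spread given. Method, purity and exact conditions of the single measurements are not given. Where a salt, mixture or single isomer is drawn, the source does not say that exactly this form was tested. Unmarked limits or estimates from the upstream databases cannot be ruled out.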

Melting points are in °C. "n/a" marks a cell with nothing listed here.

mp (°C)	structure (SMILES)	name
98	COc1cc(-c2n[nH]c(=S)o2)cc(OC)c1OC	5-(3,4,5-trimethoxyphenyl)-1,3,4-oxadiazole-2-thiol
203	CC1CCCCN1S(=O)(=O)c1ccc(C(=O)O)cc1 (stereo not given)	4-[(2-methylpiperidin-1-yl)sulfonyl]benzoic acid
204	Cc1ccc(-n2c(C)c(C)c3c(N)ncnc32)cc1	n/a
75	COc1cc(C=O)ccc1OCc1ccc(Br)cc1	4-[(4-bromobenzyl)oxy]-3-methoxybenzaldehyde
150	O=S(=O)(c1ccc(Cl)nc1)N1CCCC1	2-Chloro-5-(pyrrolidine-1-sulfonyl)pyridine
191	CCOC(=O)c1sc2nc(CCl)[nH]c(=O)c2c1C	n/a
170	O=C(O)c1cncs1	Thiazole-5-carboxylic acid
58	Cc1ccc(NS(=O)(=O)c2cc(N)ccc2Cl)c(C)c1	Benzenesulfonamide, 5-amino-2-chloro-N-(2,4-dimethylphenyl)-
155	CC(C)N(C)S(=O)(=O)c1ccc(Cl)c(C(=O)O)c1	2-chloro-5-{[isopropyl(methyl)amino]sulfonyl}benzoic acid
167	Nc1ccc2oc(-c3ccccc3F)nc2c1	2-(2-fluorophenyl)-1,3-benzoxazol-5-amine
52	COC(=O)c1cccc(S(=O)(=O)Cl)c1	Benzoic acid, 3-(chlorosulfonyl)-, methyl ester
285	COc1ccc2[nH]c(C)cc(=O)c2c1	6-Methoxy-2-methylquinolin-4(1H)-one
155	NS(=O)(=O)c1ccc(Cl)nc1	6-chloropyridine-3-sulfonamide
153	CCOC(=O)c1c(-c2ccccc2)oc2ccc(O)cc12	5-Hydroxy-2-phenyl-benzofuran-3-carboxylic acid ethyl ester
278	CC(=O)Nc1cc(C(=O)O)ccc1C	3-acetamido-4-methylbenzoic acid
220	OC(Cl)=NCc1nnc(-c2ccccc2)o1	n/a
122	Cc1ccc2nc3ccccc3c(Cl)c2c1	9-Chloro-2-methylacridine
198	O=C(O)CN1C(=O)c2ccc([N+](=O)[O-])cc2C1=O	(5-Nitro-1,3-dioxo-1,3-dihydro-2H-isoindol-2-yl)acetic acid
94	O=C(O)C1CC(=O)N(C2CC2)C1 (stereo not given)	1-cyclopropyl-5-oxopyrrolidine-3-carboxylic acid
158	O=C(CCl)NC(=O)c1ccccc1	N-(2-Chloro-acetyl)-benzamide
176.7	COc1ccc(C(CN)C2(O)CCCCC2)cc1.Cl (stereo not given)	N,N-Didesmethylvenlafaxine hydrochloride
52.5	CCOC(=O)NS(=O)(=O)c1ccc(Cl)s1	Ethyl N-[(5-chloro-2-thienyl)sulfonyl]carbamate
125	S=c1[nH]nc(Cc2ccccc2)o1	5-benzyl-1,3,4-oxadiazole-2-thiol
130	Cc1cc(C)c2nc(Cl)cc(C)c2c1	2-chloro-4,6,8-trimethylquinoline
145	NS(=O)(=O)c1ccc(S(=O)(=O)Cl)cc1	4-sulfamoylbenzenesulfonyl Chloride
276	NS(=O)(=O)c1cc(C(=O)O)ccc1Br	4-bromo-3-sulfamoylbenzoic acid
111	O=C(CCl)NC12CC3CC(CC(C3)C1)C2	Acetamide, N-(1-adamantyl)-2-chloro-
210	Nc1nnc(-c2cccc(Br)c2)o1	5-(3-bromophenyl)-1,3,4-oxadiazol-2-amine
128	CC(C)(C)c1ccc(-c2csc(N)n2)cc1	4-(4-tert-butylphenyl)-1,3-thiazol-2-amine
183	O=C(O)c1cc(-c2ccccc2F)on1	5-(2-Fluorophenyl)-1,2-oxazole-3-carboxylic acid

Excerpt, the opening 3 entries:

structure (SMILES)	name	mp (°C)
COc1cc(-c2n[nH]c(=S)o2)cc(OC)c1OC	5-(3,4,5-trimethoxyphenyl)-1,3,4-oxadiazole-2-thiol	98
CC1CCCCN1S(=O)(=O)c1ccc(C(=O)O)cc1 (stereo not given)	4-[(2-methylpiperidin-1-yl)sulfonyl]benzoic acid	203
Cc1ccc(-n2c(C)c(C)c3c(N)ncnc32)cc1	n/a	204